Assay results reported in ChEMBL document CHEMBL4765382, “Novel anilide and benzylamide derivatives of arylpiperazinylalkanoic acids as 5-HT/5-HT receptor antagonists and phosphodiesterase 4/7 inhibitors with procognitive and antidepressant activity” (Eur J Med Chem, 2020).
Calls of active or inactive are those of the source. The calls are words filed in the database; no cut-off is given here.

Sequences of proteins named here, by UniProt entry; tags and fusion partners are left off.
UniProt P34969, whole entry: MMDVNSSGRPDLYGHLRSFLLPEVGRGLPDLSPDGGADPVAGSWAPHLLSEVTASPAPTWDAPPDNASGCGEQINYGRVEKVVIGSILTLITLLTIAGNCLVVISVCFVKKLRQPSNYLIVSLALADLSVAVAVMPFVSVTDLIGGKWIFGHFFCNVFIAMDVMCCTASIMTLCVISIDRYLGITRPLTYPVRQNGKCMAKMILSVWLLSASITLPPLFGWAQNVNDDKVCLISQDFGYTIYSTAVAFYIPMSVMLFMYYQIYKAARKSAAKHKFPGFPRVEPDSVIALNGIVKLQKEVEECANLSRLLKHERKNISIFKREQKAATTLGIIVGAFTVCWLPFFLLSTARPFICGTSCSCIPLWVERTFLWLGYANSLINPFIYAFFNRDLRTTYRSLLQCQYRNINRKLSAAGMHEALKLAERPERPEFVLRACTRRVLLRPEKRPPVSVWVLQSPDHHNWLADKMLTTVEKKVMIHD

Assays:
[1] = target: T1, 5-hydroxytryptamine receptor 7 (Homo sapiens, UniProt P34969); test: Antagonist activity at recombinant human 5HT7 receptor expressed in CHO-K1 cells co-transfected with beta-lactamase reporter gene assessed as inhibition of serotonin-induced cAMP accumulation measured after 1 hr by LANCE TR-FRET assay; type: functional, cell-based; details: filed as antagonist
[2] = target: T1, 5-hydroxytryptamine receptor 7; test: Agonist activity at recombinant human 5HT7 receptor expressed in CHO-K1 cells co-transfected with beta-lactamase reporter gene assessed as cAMP accumulation measured after 1 hr by LANCE TR-FRET assay; type: functional, cell-based
[3] = target: T1, 5-hydroxytryptamine receptor 7; test: Displacement of [3H]-5-CT from human 5HT7 receptor expressed in HEK293 cells measured after 1 hr by microbeta counting method; type: cell-based

SMILES | Kb [1] | Activity [2] | Ki [3]
COc1ccccc1N1CCN(CCCCCC(=O)Nc2cc(C(C)(C)C)ccc2O)CC1 | 480 nM | inactive | 
COc1ccccc1N1CCN(CCCCC(=O)Nc2cccc(C(=O)OC(C)(C)C)c2)CC1 | 9900 nM | inactive | 
COc1ccccc1N1CCN(CCCCC(=O)Nc2ccc(C(C)C)cc2)CC1.Cl | 460 nM | inactive | 451 nM
COc1ccccc1N1CCN(CCCCCC(=O)Nc2ccc(C(C)(C)C)cc2)CC1 | 870 nM | inactive | 

Results, then the compound that gave them:

Kb [1] | Activity [2] | Ki [3] | SMILES
240 nM | inactive |  | COc1ccccc1N1CCN(CCCCC(=O)NCc2ccccc2O)CC1
 | inactive |  | COc1ccccc1N1CCN(CCCC(=O)Nc2ccc(C(C)(C)C)cc2)CC1
100 nM | inactive |  | COc1ccccc1N1CCN(CCCCC(=O)Nc2cccc(C(C)C)c2)CC1.Cl
120 nM | inactive |  | COc1ccccc1N1CCN(CCCC(=O)NCc2ccccc2O)CC1
2300 nM | inactive |  | COc1ccccc1N1CCN(CCCC(=O)Nc2cc(C(C)(C)C)ccc2O)CC1
